According to patent US20240287147A1, “PD-L1 BINDING PEPTIDES AND PEPTIDE COMPLEXES AND METHODS OF USE THEREOF” (Fred Hutchinson Cancer Center, priority 2020, published 2024):

Experiments:
PD-L1 [1] = target: T1, PD-L1 (Homo sapiens, UniProt Q9NZQ7); conditions: relative to SEQ ID NO: 8 (All 6)
PD-L1 [2] = target: T1, PD-L1; conditions: transiently transfected SDGF-cloned CDP
cynomolgus monkey PD-L1 = conditions: cells surface-expressing binder

## EEDCKVHCVKWWMAGKACAERNKSYTIGRAHCSGQYFDVFKCLDHCAAP [SEQ ID NO: 13]
PD-L1 [1]
  PD-L1 staining / affinity of combination and reversion variants: increased affinity for PD-L1

## EERCMPQCVKSLYEYEKCLKRVENDDTGHKHCTGHYFDYWSCIDKCVAS [SEQ ID NO: 59]
PD-L1 [2]
  binding to PD-L1 (co-stain fluorescence): bind to PD-L1

## EEDCKVHCVKWWMAYKACAERNKSYTIGRAHCSGQKFDVFKCLDHCAAP [SEQ ID NO: 11]
PD-L1 [1]
  PD-L1 staining / affinity of combination and reversion variants: increased affinity for PD-L1

## ARTCESQSHRFKGPCVSDTMCASVCRTERFSGGHCRGFRRRCLCSKHC [SEQ ID NO: 58]
PD-L1 [2]
  binding to PD-L1 (co-stain fluorescence): bind to PD-L1

## EESCKPQCVKAWLEYQACAERVEKDESGEAHCTGQYFDLWGCVDKCVAP [SEQ ID NO: 57]
PD-L1 [2]
  binding to PD-L1 (co-stain fluorescence): bind to PD-L1

## CC[C@H](C)[C@@H]1NC(=O)[C@H]([C@@H](C)O)NC(=O)[C@H](Cc2ccc(O)cc2)NC(=O)[C@H](CO)NC(=O)[C@H](CCCCN)NC(=O)[C@H](CC(N)=O)NC(=O)[C@H](CCCNC(=N)N)NC(=O)[C@H](CCC(=O)O)NC(=O)[C@H](C)NC(=O)[C@@H]2CSSC[C@H](NC(=O)[C@H](Cc3c[nH]cn3)NC(=O)[C@H](C)NC(=O)[C@H](CCCNC(=N)N)NC(=O)CNC1=O)C(=O)N[C@@H](CO)C(=O)NCC(=O)N[C@@H](CCC(N)=O)C(=O)N[C@@H](CCCCN)C(=O)N[C@@H](Cc1ccccc1)C(=O)N[C@@H](CC(=O)O)C(=O)N[C@@H](C(C)C)C(=O)N[C@@H](Cc1ccccc1)C(=O)N[C@@H](CCCCN)C(=O)N[C@H]1CSSC[C@H](NC(=O)[C@H](Cc3c[nH]cn3)NC(=O)[C@H](C(C)C)NC(=O)[C@H](CCCCN)NC(=O)[C@@H](NC(=O)[C@H](CC(=O)O)NC(=O)[C@H](CCC(=O)O)NC(=O)[C@@H](N)CCC(=O)O)CSSC[C@@H](C(=O)N[C@@H](C)C(=O)N[C@@H](C)C(=O)N3CCC[C@H]3C(=O)O)NC(=O)[C@H](Cc3c[nH]cn3)NC(=O)[C@H](CC(=O)O)NC(=O)[C@H](CC(C)C)NC1=O)C(=O)N[C@@H](C(C)C)C(=O)N[C@@H](CCCCN)C(=O)N[C@@H](CCC(=O)O)C(=O)N[C@@H](Cc1c[nH]c3ccccc13)C(=O)N[C@@H](CCSC)C(=O)N[C@@H](C)C(=O)NCC(=O)N[C@@H](CCCCN)C(=O)N[C@@H](C)C(=O)N2 [SEQ ID NO: 3]
Cynomolgus monkey PD-L1
  binding to cynomolgus monkey PD-L1: binds human and cynomolgus monkey PD-L1
